# Measurements reported in DBAASP.
# System: Escherichia coli K-12
# Test: ≥ marks a high value that may be exact or a test limit, other limits are often not marked, values filed in µg/mL are converted to µM
row,Structure (SMILES),MIC
1,CC(C)C[C@H](NC(=O)[C@H](CC(C)C)NC(=O)[C@H](CC(N)=O)NC(=O)[C@H](CCCCN)NC(=O)[C@H](CC(C)C)NC(=O)[C@H](CC(=O)O)NC(=O)[C@@H](N)C(C)C)C(=O)N[C@@H](CCCCN)C(=O)O [VDLKNLLK],≥ 128 µM
2,CC(C)C[C@H](NC(=O)[C@H](CC(C)C)NC(=O)[C@H](CC(N)=O)NC(=O)[C@H](C)NC(=O)[C@H](CC(N)=O)NC(=O)[C@H](CC(C)C)NC(=O)[C@@H](N)C(C)C)C(=O)N[C@@H](CCCN=C(N)N)C(=O)O [VLNANLLR],≥ 128 µM
3,CC(C)C[C@H](NC(=O)[C@H](CC(C)C)NC(=O)[C@H](CC(N)=O)NC(=O)[C@H](CCC(=O)O)NC(=O)[C@H](CC(N)=O)NC(=O)[C@H](CC(C)C)NC(=O)[C@@H](N)C(C)C)C(=O)N[C@@H](Cc1cnc[nH]1)C(=O)O [VLNENLLH],≥ 128 µM
